Among the data in patent US20090100532A1, “TRANSGENIC MICE EXPRESSING HYPERSENSITIVE NICOTINIC RECEPTORS” (CALIFORNIA INSTITUTE OF TECHNOLOGY, priority 2007, published 2009) are EC50 values, retold here.

The test system of this assay is nAChRs. The conditions noted are these: read-out: EC50 (±SEM), Total DA release.

pEC50: −log10 of the molar value. Like-named read-outs stand apart in the source and are kept apart here.

As usually defined, the pEC50 is the EC50 on a negative log10 scale, so that one unit is a factor of ten. As to `c1cncc(C2CC3CCN2CC3)c1` (stereo not drawn), the pEC50 was 8.03. Besides, the pEC50 (ST/OT, L9′S line 2) is 8.66. In addition, the pEC50 (ST/OT, L9′S line 5) is 8.59.
